Tests used:
MSTO-211H cells = experiment: Proliferation Assay (CellTiter-Glo Luminescent Cell Viability Assay); conditions: read-out: MSTO-211H IC50, 96 hours treatment
Protocol: Example 5: Proliferation Assay
The effect of compound on YAP driven cancer cells proliferation was assessed in MSTO-211H (ATCC, CRL-2081TM) or NCI-H2052 (ATCC, CRL-5915TM) cells using CellTiter-Glo Luminescent Cell Viability Assay (Promega, G7570).
Briefly, individual cell lines were seeded in 96-well cell culture plate at the density of 1,500 cells per well and cultured in RPMII1640 (Gibco-A10491-01)+10% FBS (Gibco-10099-141C)+1% Penicillin-Streptomycin (5,000 U/mL, Gibco-15070-063) overnight at 37° C. with 5% CO2 before adding the compounds.
Following incubation, serial dilutions of compounds dissolved in DMSO were added to each well (3-fold dilution with 9 concentration points). The final concentration of DMSO present in this assay is below 0.5% and make duplication for each compound treated well.
Following 96 hours treatment, compound mediated cell growth inhibition was measured using CellTiter-Go Luminescent Cell Viability Assay (Promega, G7570). […] CellTiter-Glo in each assay well, mix and incubate at room temperature for 10 min. Read signal using EnVision® Multilabel Plate Reader (Perkin Elmer).
For data analysis, cell proliferation inhibition was calculated using the following formula:
Inhibition %=(1−(Compound treated well CTG signal/DMSO well CTG signal))*100.
IC50 values were calculated using GraphPad Prism software using a four-parameter fit model.

Protein sequences, listed by entry. Tags and fused reporters are not part of them. Residues count along the entry.
UniProt P28347, 209-426: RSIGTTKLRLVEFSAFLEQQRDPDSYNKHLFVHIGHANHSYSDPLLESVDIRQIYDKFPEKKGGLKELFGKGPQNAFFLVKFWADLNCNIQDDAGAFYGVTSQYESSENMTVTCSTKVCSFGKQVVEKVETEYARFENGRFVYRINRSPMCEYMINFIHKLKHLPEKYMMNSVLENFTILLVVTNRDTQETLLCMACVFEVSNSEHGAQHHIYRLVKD

[1] = target: TEAD1(210-426) binding to YAP(50-100) (Homo sapiens, UniProt P28347); experiment: TR-FRET Assay for TEAD1(210-426) Binding to YAP(50-100); conditions: His-TEAD 10 nM, YAP-Biotin peptide 50 nM

SMILES | IC50 (MSTO-211H cells) [nM] | IC50 [1] [nM]
CNc1nccc(Cn2ccc(-c3nn(-c4ccc(C(F)(F)F)cc4F)c4c(F)cccc34)cc2=O)n1 | < 1000 | < 100
O=c1cc(-c2nn(-c3ccc(C(F)(F)F)cc3)c3ncccc23)ccn1Cc1ccnc(CO)n1 | < 1000 | < 100

Reference: patent US20250154127A1, “BICYCLIC HETEROARYL COMPOUNDS AND USES THEREOF” (ETERN BIOPHARMA (SHANGHAI) CO., LTD., priority 2022, published 2025)
